Patent publication US11759436B2, “Dosage regimen of an S1P receptor modulator” (Novartis AG, priority 2009, dated 2023)

Test system: patients with Relapsing-remitting Multiple Sclerosis
Assay: Study of oral fingolimod 0.5 mg/day or 1.25 mg/day vs interferon beta1-a in patients with RRMS
Type: in vivo, human
Protocol: Study: Two different daily dosages of fingolimod (0.5 mg and 1.25 mg) have been orally administered to patients with Relapsing-remitting Multiple Sclerosis during 24-month 1292 patients with RRMS from 172 centers in 18 countries are randomized to receive oral fingolimod, in a dose of 0.5 mg/day or 1.25 mg/day, or interferon beta1-a 30 μg intramuscularly once a week. Patients randomized to fingolimod receive placebo injections once a week, and those randomized to interferon beta1-a receive a placebo pill once a day. The patients are seen clinically every month for 3 months and every 3 months thereafter. The Expanded Disability Status Scale (EDSS) is performed every 3 months, the MS Functional Composite (MSFC) every 6 months, and MRI annually. Monitoring by ophthalmic examination, dermatologic examination, pulmonary function tests, chest X-ray and/or CT, Holter monitoring, and echocardiography are performed. Participants who completed 1 year on treatment are offered an optional extension phase. Those randomized to fingolimod continue on their assigned dose, and those in the interferon beta1-a group are randomized to the 2 fingolimod doses.

Interferon beta1-a: comparator given 30 μg intramuscularly once a week to RRMS patients
Annualized relapse rate (RRMS patients, interferon beta1-a 30 μg intramuscularly once a week): 0.33
proportion of relapse-free patients (RRMS patients, interferon beta1-a group): 69%
Basal-cell carcinoma (human, in vivo): 1 (0.2) n (%)
Breast cancer (human, in vivo): 0 n (%)
Malignant melanoma (human, in vivo): 0 n (%)
Squamous-cell carcinoma (human, in vivo): 1 (0.2) n (%)
